Source: PMC12408683 (Archives of Toxicology, 2025)

How the values were obtained:
HepG2-CYP1A2 cells = settings: positive control 0.25 µM
Procedure: Following the recovery time, the cells were detached, harvested by centrifugation (300 g, 5 min), and washed with PBS. […] The fluorescent dye was then activated by photolysis (60 W lightbulb, 30 cm spacing) for 20 min before addition of 9 mL PBS to remove unbound dye. […] 1.5 × 10^4 cells were analysed using the BD FACSDiva software (BD Biosciences, Heidelberg, Germany). A schematic overview of the gating strategy is provided in the supporting information, Fig. 3.

HepG2 cells [1] = settings: positive control
Procedure: The CBMN assay was performed according to the OECD test guideline #487. Therefore, 2 × 10^5 cells were seeded in 3.5 cm dishes and allowed to adhere for 24 h. […] After the 24 h treatment, the medium was discarded and the cells were incubated with fresh medium, containing 6 µg/mL cytochalasin B as cytokinesis inhibitor. The cells were then left to grow for 72 h, allowing for 1.5–2 × cell cycles. Subsequently, the cells were rinsed with PBS and fixed with ice-cold methanol for 10 min at –20 °C. Cells were washed and embedded with Vectashield® containing DAPI (Vector Labs, Burlingame, CA, USA). The samples were analysed with a Zeiss Axio Observer 7 microscope equipped with an Axiocam 305 mono and a 63 × oil immersion objective (plan-apochromat 63x/1.40 DIC M27) using ZEN Software 3.2. 500 binucleated cells per sample were analysed for micronuclei formation.
As benchmark response (BMR) for all concentration–response curves (adducts, micronuclei), a 2.0-fold increase vs. solvent control was used (BMC100, critical effect size = 1). The determined BMC100 and the corresponding upper and lower boundary (BMCU and BMCL, respectively) of the 90% confidence interval (CI) were used for potency comparison.

HepG2 cells [2] = settings: positive control 0.25 µM

CO[C@@]12[C@H](COC(N)=O)C3=C(C(=O)C(C)=C(N)C3=O)N1C[C@@H]1N[C@@H]12 [MMC, mitomycin C, reference compound]
MN induction vs. solvent control (flow cytometry) (HepG2-CYP1A2 cells): ninefold | MN (CBMN) (HepG2 cells [1]): robust increase in MN | MN increase vs. solvent control (flow cytometry) (HepG2 cells [2]): roughly eightfold
